Source: patent US6664252B2, “4-aminopyrrolo[2,3-d]pyrimidine compounds specific to adenosine A2a receptor and uses thereof” (OSI Pharmaceuticals, Inc., priority 1999, dated 2003)

Chains of the proteins cited; added tags and fusions are not shown.
UniProt P0DMS8, whole entry: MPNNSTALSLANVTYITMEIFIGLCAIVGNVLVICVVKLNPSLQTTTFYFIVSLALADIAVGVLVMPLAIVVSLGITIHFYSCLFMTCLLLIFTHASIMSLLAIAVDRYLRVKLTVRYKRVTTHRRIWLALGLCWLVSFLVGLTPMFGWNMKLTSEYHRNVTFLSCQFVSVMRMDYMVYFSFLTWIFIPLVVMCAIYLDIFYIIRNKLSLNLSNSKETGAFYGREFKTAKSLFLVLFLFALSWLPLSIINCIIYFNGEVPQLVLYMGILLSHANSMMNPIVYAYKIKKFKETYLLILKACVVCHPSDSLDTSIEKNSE
UniProt P30542, whole entry: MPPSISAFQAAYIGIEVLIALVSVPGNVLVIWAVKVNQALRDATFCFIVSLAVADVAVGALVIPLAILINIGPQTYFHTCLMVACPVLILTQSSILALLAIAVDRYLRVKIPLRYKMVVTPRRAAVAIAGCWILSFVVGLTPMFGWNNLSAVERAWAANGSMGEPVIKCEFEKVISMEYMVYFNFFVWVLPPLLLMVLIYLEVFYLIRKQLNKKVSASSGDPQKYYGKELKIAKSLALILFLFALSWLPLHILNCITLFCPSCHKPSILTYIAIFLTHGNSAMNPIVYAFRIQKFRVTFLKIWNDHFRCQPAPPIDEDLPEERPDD

Tests used:
human A3 receptor = human A3 receptor (Homo sapiens, UniProt P0DMS8); experiment: Displacement binding of [3H]CPX, yeast membranes expressing hA3R; conditions: read-out: IC50 [nM] hA3R, 0.4 nM [3H]CPX
[1] = target: human A1 adenosine receptor (Homo sapiens, UniProt P30542); experiment: fus1-LacZ β-galactosidase assay, agonist stimulation; assay type: cell-based; parameters: yeast alpha-factor (MFalpha1) prepro leader (N, cleaved yes); expressed in transfected cells; host or cells: Saccharomyces cerevisiae (strain CY12660 and related strains carrying plasmid p5095); conditions: NECA concentration of 10^−8 M

Row | SMILES | IC50 (human A3 receptor) [nM] | stimulation of β-galactosidase activity [1]
1 | CC(Cc1ccccc1)Nc1ncnc2c1ncn2[C@@H]1O[C@H](CO)[C@@H](O)[C@H]1O (single isomer, unassigned; (-)) | 23.6 | –
2 | CCNC(=O)[C@H]1O[C@@H](n2cnc3c(N)ncnc32)[C@H](O)[C@@H]1O [NECA, 5′-N-ethylcarboxamidoadenosine] | – | approximately 2 fold
